## Apparent affinities of Ab-14 variants for a coronavirus HR2 peptide

Antigen: PDVDLGDISGINAS, a 14-residue peptide of the SARS-CoV-2 spike HR2 region.

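Phage display of a naive human antibody library on the peptide gave the parent. Designed CDR sequences, proposed from the first random library and measured here. Several design methods are mixed in this list. The scFvs were displayed on barcoded MATa yeast, the peptide on MATalpha yeast. Binding brings cells together so that they mate, and sequencing counts the barcode pairs among the diploids. Read counts were normalised to the haploid input and turned into Kd by a linear fit to BCL2-family pairs of known affinity, for each replicate. There are six technical replicates.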

Ab-14 is the parent antibody, in scFv form: VH, then a (GGGGS)3 linker, then VL. The heavy chain is unchanged in all variants.
VH: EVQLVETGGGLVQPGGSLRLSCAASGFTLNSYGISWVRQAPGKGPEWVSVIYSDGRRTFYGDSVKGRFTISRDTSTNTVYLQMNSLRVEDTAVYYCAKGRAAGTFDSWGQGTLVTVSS
VL: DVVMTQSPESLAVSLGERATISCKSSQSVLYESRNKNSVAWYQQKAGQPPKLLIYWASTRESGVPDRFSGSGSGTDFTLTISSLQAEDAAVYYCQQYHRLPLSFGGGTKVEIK

Variants are written as CDR1, CDR2 and CDR3 of the light chain (limits as in the source). Parent: KSSQSVLYESRNKNSVA, WASTRES, QQYHRLPLS.
Kd is apparent (estimated from mating counts) and averaged on the log scale over replicates with a signal. Smaller is tighter.
"nd" means that the variant was in the library but no mating with the target was seen in any replicate; the authors take this as a sign of poor binding, and no number exists.

{"CDR-L1": "KFSQSVLYESRNLNSVA", "CDR-L2": "NASTRES", "CDR-L3": "QWYHRLPLS", "Kd": "28 nM", "replicates with signal": "6 of 6"}
{"CDR-L1": "KLSYVTHSEHRNKNSIA", "CDR-L2": "EMVTREK", "CDR-L3": "QQYDRLPLS", "Kd": "75 nM", "replicates with signal": "3 of 6"}
{"CDR-L1": "KLPQSVLYESRNKNSVA", "CDR-L2": "NASQRMS", "CDR-L3": "QQYHRLPLS", "Kd": "670 pM", "replicates with signal": "6 of 6"}
{"CDR-L1": "KLSSHYFESYGERQAVA", "CDR-L2": "DNEATMN", "CDR-L3": "QQYHLLPLS", "Kd": "82 nM", "replicates with signal": "4 of 6"}
{"CDR-L1": "KLQGSELGESRNKNSVA", "CDR-L2": "SADTRLE", "CDR-L3": "QQYHRLPLS", "Kd": "790 pM", "replicates with signal": "6 of 6"}
{"CDR-L1": "MLSQTVDYNYTAGNSVA", "CDR-L2": "EVTERCN", "CDR-L3": "QQYKRLPLS", "Kd": "21 nM", "replicates with signal": "6 of 6"}
{"CDR-L1": "KLLEAVLGESYNKNSVA", "CDR-L2": "HNSTRED", "CDR-L3": "QEYARLPLS", "Kd": "60 nM", "replicates with signal": "6 of 6"}
{"CDR-L1": "KLSQSVLYESRNKNNVA", "CDR-L2": "HASTRES", "CDR-L3": "QQYHRLPLS", "Kd": "1.4 nM", "replicates with signal": "6 of 6"}
{"CDR-L1": "KLSPSVLYESRTKNSVA", "CDR-L2": "NASTRES", "CDR-L3": "QQYHRLPLS", "Kd": "3.6 nM", "replicates with signal": "6 of 6"}
{"CDR-L1": "KLNLREEWGTGQWQNIA", "CDR-L2": "EREIAWQ", "CDR-L3": "QQYQSLPLS", "Kd": "28 nM", "replicates with signal": "6 of 6"}
{"CDR-L1": "KLQQSVLYESRNKNSVA", "CDR-L2": "NASTRLS", "CDR-L3": "QDYHRLPLS", "Kd": "950 pM", "replicates with signal": "6 of 6"}
{"CDR-L1": "KIGMTLNQLYQKNNNVA", "CDR-L2": "DLVTREN", "CDR-L3": "QQYHRLPLS", "Kd": "2.3 nM", "replicates with signal": "6 of 6"}
{"CDR-L1": "SLMQSVLYESRNKNSVA", "CDR-L2": "HASYRED", "CDR-L3": "QQYHRLPLS", "Kd": "1.2 nM", "replicates with signal": "6 of 6"}
{"CDR-L1": "KMSQSGMMESRNQNQVA", "CDR-L2": "EASTRLS", "CDR-L3": "QQYHRLPLS", "Kd": "1.8 nM", "replicates with signal": "6 of 6"}
{"CDR-L1": "KIQQSGLGEERNFNSVA", "CDR-L2": "HASTRIS", "CDR-L3": "QQYHRLPLS", "Kd": "4.2 nM", "replicates with signal": "6 of 6"}
{"CDR-L1": "MISGSVMSESRLKNSVA", "CDR-L2": "QTTMRES", "CDR-L3": "QQYDRLPLS", "Kd": "62 nM", "replicates with signal": "5 of 6"}
{"CDR-L1": "KISQSEYYEDRNKMSVA", "CDR-L2": "SASTRLS", "CDR-L3": "QQYHRLPLS", "Kd": "3.1 nM", "replicates with signal": "6 of 6"}
{"CDR-L1": "KVSQSWLYESRNKNSVA", "CDR-L2": "GASSRES", "CDR-L3": "QQYHRLPLS", "Kd": "460 pM", "replicates with signal": "6 of 6"}
{"CDR-L1": "KSSQSVLYESREKNNVA", "CDR-L2": "WASIRES", "CDR-L3": "QQYHRLPLS", "Kd": "nd", "replicates with signal": "0 of 6"}
{"CDR-L1": "QLSAVQDMTSKNKNSVA", "CDR-L2": "EQSTREN", "CDR-L3": "QQYHRLPLS", "Kd": "2.0 nM", "replicates with signal": "6 of 6"}
{"CDR-L1": "KVSQQYLYGDRNANSVA", "CDR-L2": "NASTRED", "CDR-L3": "QQYHRLPLS", "Kd": "1.6 nM", "replicates with signal": "6 of 6"}
{"CDR-L1": "KMSQSWLGEQRNKNSVA", "CDR-L2": "DISTRES", "CDR-L3": "QQYHRLPLS", "Kd": "740 pM", "replicates with signal": "6 of 6"}
{"CDR-L1": "KVQNHSSGTLNDKNAVA", "CDR-L2": "EDKNVAV", "CDR-L3": "QQYVRLPLI", "Kd": "21 µM", "replicates with signal": "2 of 6"}
{"CDR-L1": "HMSMLTLSGMRHTNSVA", "CDR-L2": "QMTTRVN", "CDR-L3": "QQYDRLPLV", "Kd": "13 nM", "replicates with signal": "6 of 6"}
{"CDR-L1": "HSSPSVDYESRNKNSVA", "CDR-L2": "NASTREE", "CDR-L3": "QDYHRLPLS", "Kd": "1.4 nM", "replicates with signal": "6 of 6"}
{"CDR-L1": "HSSPSVPYESRNKNSVA", "CDR-L2": "NASTRED", "CDR-L3": "QDYHRLPLS", "Kd": "1.3 nM", "replicates with signal": "6 of 6"}
{"CDR-L1": "HSSPSVLYDSRNKNHVA", "CDR-L2": "NASTRES", "CDR-L3": "QQYHRLPLS", "Kd": "2.1 nM", "replicates with signal": "6 of 6"}
{"CDR-L1": "KIYQATAMTSSMRNNVA", "CDR-L2": "DLNERER", "CDR-L3": "QQYFRLPLS", "Kd": "1.3 nM", "replicates with signal": "6 of 6"}
{"CDR-L1": "KSSQSVLYESRNKNSVA", "CDR-L2": "WASTRSS", "CDR-L3": "QQYHKLPLS", "Kd": "10 nM", "replicates with signal": "6 of 6"}
{"CDR-L1": "MISQLYNMGTFAINSVA", "CDR-L2": "QASIRNS", "CDR-L3": "QQYDRLPLM", "Kd": "310 nM", "replicates with signal": "3 of 6"}
{"CDR-L1": "MLSDLNKMGVRQTQSVA", "CDR-L2": "DNSTRGE", "CDR-L3": "QQYDRLPLS", "Kd": "41 nM", "replicates with signal": "6 of 6"}
{"CDR-L1": "KFSQSVLYESRQKNSVA", "CDR-L2": "NAVTRET", "CDR-L3": "QQYHRLPLS", "Kd": "840 pM", "replicates with signal": "6 of 6"}

The opening 4 entries, copied out:

{"CDR-L1": "KFSQSVLYESRNLNSVA", "CDR-L2": "NASTRES", "CDR-L3": "QWYHRLPLS", "Kd": "28 nM", "replicates with signal": "6 of 6"}
{"CDR-L1": "KLSYVTHSEHRNKNSIA", "CDR-L2": "EMVTREK", "CDR-L3": "QQYDRLPLS", "Kd": "75 nM", "replicates with signal": "3 of 6"}
{"CDR-L1": "KLPQSVLYESRNKNSVA", "CDR-L2": "NASQRMS", "CDR-L3": "QQYHRLPLS", "Kd": "670 pM", "replicates with signal": "6 of 6"}
{"CDR-L1": "KLSSHYFESYGERQAVA", "CDR-L2": "DNEATMN", "CDR-L3": "QQYHLLPLS", "Kd": "82 nM", "replicates with signal": "4 of 6"}

Values of this round are not directly comparable with the first-round values of the same sequences.
Background: pairings of all light chain designs with three empty control strains gave a value in 4% of cases (median 430 nM, 5th percentile 38 nM). Values in that range, when seen in few replicates, are hard to tell from nonspecific mating.
The authors averaged sequences with at least three values out of six and counted those with two or fewer as poor binders.

Reference: Li et al. 2023, doi:10.1038/s41467-023-39022-2. File: FLAb, binding data.